Source: patent US8952036B2, “Benzoic acid derivative MDM2 inhibitor for the treatment of cancer” (Amgen Inc., priority 2013, dated 2015)

System: SJSA-1 cells
Test: cells
Settings: Homo sapiens, SJSA-1, 16 h, read-out: Cellular (SJSA-1) EdU assay IC50 (μM) 10% human serum

## CC(C)(C)S(=O)(=O)C[C@H](C1CC1)N1C(=O)[C@@](C)(CC(=O)O)C[C@H](c2cccc(Cl)c2)[C@H]1c1ccc(Cl)c(F)c1 [Example 4, 2-((3R,5R,6S)-1-((S)-2-(tert-Butylsulfonyl)-1-cyclopropylethyl)-6-(4-chloro-3-fluorophenyl)-5-(3-chlorophenyl)-3-methyl-2-oxopiperidin-3-yl)acetic acid]
  IC50: 0.0012 µM

## COc1cc(NC(=O)C[C@@]2(C)C[C@H](c3cccc(Cl)c3)[C@@H](c3ccc(Cl)c(F)c3)N([C@H](CS(=O)(=O)C(C)(C)C)C3CC3)C2=O)ccc1C(=O)O [Example 5, 4-(2-((3R,5R,6S)-1-((S)-2-(tert-Butylsulfonyl)-1-cyclopropylethyl)-6-(4-chloro-3-fluorophenyl)-5-(3-chlorophenyl)-3-methyl-2-oxopiperidin-3-yl)acetamido)-2-methoxybenzoic acid]
  IC50: 0.0017 µM
